In publication PMC9922763 (Frontiers in Molecular Biosciences, 2023):

B1: IAPP BiFC fusion: human IAPP, 17-residue linker, N-terminal or C-terminal fragment of Venus (peptide)
chain: KCNTATCATQRLANFLVHSSNNFGAILSSTNVGSNTYRPACKIPNDLKQKVMNH
notes: human islet amyloid polypeptide (IAPP), the 37-amino acid long peptide cut from proIAPP; 17-amino acid linker between the protein of interest and the Venus fragment; One molecule stands for both constructs, IVN (Venus 1-173) and IVC (Venus 155-239); the label in each row tells which was used; a start methionine is not described; also called IVN; IVC; source: HEK293, transfected (pcDNA3.1 zeo+), …
B2: aSyn (61–95) BiFC fusion: aSyn residues 61–95, 17-residue linker, N-terminal or C-terminal fragment of Venus (domain or fragment)
chain: EQVTNVGGAVVTGVTAVAQKTVEGAGSIAAATGFVRPACKIPNDLKQKVMNH
notes: alpha-synuclein (aSyn), residues 61-95, the non-amyloid-B component (NAC) region, 35 amino acids; 17-amino acid linker between the protein of interest and the Venus fragment; One molecule stands for both constructs, aSVN (Venus 1-173) and aSVC (Venus 155-239); the label in each row tells which was used; A start methionine and residues coded by the restriction sites are not described; also called …

Assays:
[1] = target: B2; experiment: split reporter (BiFC, NanoBiT); BiFC with split Venus in transfected HEK293 cells; percent of fluorescent cells by flow cytometry (Accuri C6 plus) 24 h after transfection; details: partners not purified
[2] = target: B1; experiment: as above; details: partners not purified

Binder | percent of cells with a fluorescent BiFC signal [1] | percent of cells with a fluorescent BiFC signal [2]
B1 | 11% | 
B2 |  | 9.8%
